The test addresses FLAG-eIF2β-E189K (sui3-E189K) (S. cerevisiae) (UniProt P09064). Put plainly: co-IP; anti-FLAG immune precipitation of FLAG-eIF2β (WT or E189K) and associated proteins from yeast whole cell extracts; untagged control; quantitative IR western blotting (Li-Cor), at least three repeats. In general terms: A western blot detects proteins with antibodies after separation by electrophoresis.

The chains behind the UniProt entries cited, without tags or fusion partners.
UniProt P09064, whole entry E189K: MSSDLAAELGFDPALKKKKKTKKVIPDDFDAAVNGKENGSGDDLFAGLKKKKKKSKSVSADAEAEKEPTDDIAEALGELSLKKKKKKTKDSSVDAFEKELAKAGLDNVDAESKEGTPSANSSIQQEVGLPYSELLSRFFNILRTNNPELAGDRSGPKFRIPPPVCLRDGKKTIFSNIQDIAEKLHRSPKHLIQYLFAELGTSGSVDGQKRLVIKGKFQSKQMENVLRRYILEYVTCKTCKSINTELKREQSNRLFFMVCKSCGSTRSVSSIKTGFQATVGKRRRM

“eIF2B, P14741 1-305; P32502 1-381; P09032 1-578; P12754 1-651; P32501 1-712”: the reduction in association relative to WT FLAG-eIF2β is 20%.

The record behind these values is article PMC5175340, “eIF2β is critical for eIF5-mediated GDP-dissociation inhibitor activity and translational control” (Nucleic Acids Research, 2016).
